Experimental findings from patent publication US20210277127A1 are described below.

In this assay the target is EGFR on the surface of A431 cells (UniProt P00533). In words: cell-based or functional assay.

On to “Bispecific-1 (anti-EGFR.CD3 tetravalent bispecific antibody, EGFR antibody sequence of nimotuzumab)”, for which the cell mortality rate (killing of PKH26-labeled A431 cells by CD3+ T cells, flow cytometry) amounted to 80%.

“Bispecific-3 (anti-EGFR.CD3 tetravalent bispecific antibody, EGFR antibody sequence of Panitumumab)”: the cell mortality rate (killing of PKH26-labeled A431 cells by CD3+ T cells, flow cytometry) turned out to be 80%.
